Tested on: bipolar depression
Assay: Case reports: treatment of bipolar depression in patients with bipolar I or II disorder
Details: amisulpride given in such a dose (about 50 to about 300 mg/day)

deterioration of any other aspect of bipolar disorder, such as treatment-emergent mania: No deterioration
SMILES: CCN1CCCC1CNC(=O)c1cc(S(=O)(=O)CC)c(N)cc1OC (stereo not shown) [amisulpride, 4-amino-N-[(1-ethylpyrrolidin-2-yl)methyl]-5-(ethylsulfonyl)-2-methoxybenzamide]

Reference: patent US7825156B2, “Method of treating bipolar depression with a benzamide derivative” (Copharms, priority 2007, dated 2010)
